Source: patent publication US20120009203A1, “Depletion of cancer stem cells” (priority 2010, published 2012)

Experiments:
[1] = tested on: hESCs, iPSCs, DPSCs and MSCs; assay: 51Cr release NK cell cytotoxicity assay against stem cells; assay type: cell-based, human; conditions: IL-2 1000 units/ml, anti-CD16 mAb 3 μg/ml, 12-24 hours; 4 hour 51Cr release; p<0.05
Protocol: (§1) FIG. 4. […] NK cells (1×10^6/ml) were left untreated or treated with IL-2 (1000 units/ml), or anti-CD16 mAb (3 μg/ml) or a combination of IL-2 (1000 units/ml) and anti-CD16 mAb (3 μg/ml) for 12-24 hours before they were added to ^51Cr labeled hESCs. NK cell cytotoxicity was determined using a standard 4 hour ^51Cr release assay, and the lytic units 30/10^6 were determined using inverse number of NK cells required to lyse 30% of the hESCs ×100 (A). NK cells were treated as described in FIG. 4A and each NK sample at (1×10^5/ml) were either cultured in the absence of hESCs or added to hESCs at an NK to hESC ratio of 1:1. After an overnight culture, supernatants were removed from the cultures and the levels of IFN-γ (B), and bFGF (C) secretion were determined using specific ELISAs. One of three representative experiments is shown in this figure.
(§2) FIG. 5. […] NK cells (1×10^6/ml) were left untreated or treated with IL-2 (1000 units/ml), or anti-CD16 mAb (3 μg/ml) or a combination of IL-2 (1000 units/ml) and anti-CD16 mAb (3 μg/ml) for 12-24 hours before they were added to ^51Cr labeled iPS cells and NK cell cytotoxicity was determined using a standard 4 hour ^51Cr release assay, and the lytic units 30/10^6 were determined using inverse number of NK cells required to lyse 30% of the iPS cells ×100 (A). […]

[2] = tested on: NK cells co-cultured with stem cells; assay: IFN-γ ELISA in co-cultures of NK cells with stem cells; assay type: cell-based, human; conditions: NK to stem cell ratio 1:1, overnight; IL-2 1000 units/ml, anti-CD16 mAb 3 μg/ml
Protocol: as §1, §2

## IL-2: Recombinant IL-2 obtained from NIH-BRB, used at 1000 units/ml
[1]
  effect of treatment of NK cells on cytotoxicity against stem cells: increased cytotoxicity against all stem cell populations significantly
[2]
  IFN-γ secretion by treated NK cells co-cultured with stem cells: secreted significant levels of IFN-γ
